Data as given in patent US6664252B2, “4-aminopyrrolo[2,3-d]pyrimidine compounds specific to adenosine A2a receptor and uses thereof” (OSI Pharmaceuticals, Inc., priority 1999, dated 2003).

The chains behind the UniProt entries cited, without tags or fusion partners.
UniProt P29275, whole entry: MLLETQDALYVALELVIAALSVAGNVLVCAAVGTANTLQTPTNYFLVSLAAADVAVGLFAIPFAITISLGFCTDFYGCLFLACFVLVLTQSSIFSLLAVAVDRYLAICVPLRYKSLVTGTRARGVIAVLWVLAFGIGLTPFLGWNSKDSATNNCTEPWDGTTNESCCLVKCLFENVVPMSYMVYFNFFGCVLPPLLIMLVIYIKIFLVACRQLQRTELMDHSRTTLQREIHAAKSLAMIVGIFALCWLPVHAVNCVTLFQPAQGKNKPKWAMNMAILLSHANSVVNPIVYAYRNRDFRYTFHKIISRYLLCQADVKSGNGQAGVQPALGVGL

Target: human A2b receptor subtype (Homo sapiens, UniProt P29275)
Details: read-out: Binding Ki (nM) A2b; Table 13

## Cc1[nH]c2nc(-c3cccs3)nc(N[C@H]3CC[C@H](O)CC3)c2c1C (relative stereo)
  Ki: 168 nM
